Assay results from patent US20070036775A1, “Method of modulating or examining Ku70 levels in cells” (priority 2001, published 2007).

Amino acid sequences for entries named in this document (tags omitted).
UniProt Q07812, whole entry: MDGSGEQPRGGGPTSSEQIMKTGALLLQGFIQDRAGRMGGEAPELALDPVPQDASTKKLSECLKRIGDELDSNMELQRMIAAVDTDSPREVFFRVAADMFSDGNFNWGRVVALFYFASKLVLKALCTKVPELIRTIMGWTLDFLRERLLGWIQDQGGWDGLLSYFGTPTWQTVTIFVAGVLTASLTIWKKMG

Molecular target: T1, Bax (Homo sapiens, UniProt Q07812)
T1 construct: expressed in transfected cells; host or cells: HEK293T
Assay: Co-immunoprecipitation of Flag-tagged Ku70 constructs and Bax
Type: binding
Conditions: HEK293T cells, Flag-tagged constructs, 50 uM z-VAD-fmk, Chaps-based buffer
Procedure: FIG. 4. Interaction of Ku70 and Bax. FIGS. 4A and B: Co-immunoprecipitation of endogenous Ku70 and Bax. HEK293T cells were lysed in the hypotonic buffer without detergent. Immunoprecipitation was also performed in detergent free buffer as described in Experimental Procedure. Immunoprecipitation was performed with (FIG. 4A) anti-Bax rabbit polyclonal antibody or (FIG. 4B) anti-Ku70 mouse monoclonal antibody as described in Experimental Procedure. Pre-immune rabbit serum (NRS) and mouse IgG were used as negative controls. Western blot analyses of pre-immunoprecipitation (Input) and immunoprecipitated samples (IP) were performed by anti-Ku70 monoclonal antibody or anti-Bax polyclonal antibody. (FIG. 4C) Co-immunoprecipitation of GFP-Bax and Ku70. HEK293T cells (10^6 cells) were transfected with 1.0 μg of PEGFP (GFP), pEGFP-Baxwt (GFP-Baxwt), pEGFP-Bax-ΔN (GFP-BaxΔN), pEGFP-Bax-Δα9 (GFP-BaxΔα9) or pEGFP-Bax-Δα2 (GFP-BaxΔα2) in the presence of 50 μM z-VAD-fmk. One day following transfection, cells were collected and co-immunoprecipitation experiments of GFP-Bax and endogenous Ku70 were performed as described in Experimental Procedure. Anti-GFP polyclonal antibody was used for immunoprecipitation and detection of GFP-fused proteins, and anti-Ku70 monoclonal antibody for the detection of Ku70. (FIG. 4D) Co-immunoprecipitation of Flag-tagged-Ku70 and endogenous Bax. […]

binding to Bax (co-immunoprecipitation): bound to Bax
Substance: Ku70: human full length Ku70, 70 kDa subunit of Ku-complex (609 amino acids), expressed from pCMV-2B plasmid
